Values quoted from earlier work in PMC6186450 (Pharmaceutical research, 2018).

Conditions: cited from earlier work

In the case of “PEG2-IFN: 40 kDa branched polyethylene glycol-conjugated interferon α-2a”, the “reduction of activity by PEGylation” value is listed as 14 fold.
